Data on one compound can be found in ChEMBL document CHEMBL1795329.

The nature of this data set: physchem.

As usually defined, the logP is a log measure of how a compound divides between an organic and an aqueous phase. Read a high logP as a more lipophilic compound.

`Ic1ccccc1` [IODOBENZENE] showed a logP of 3.27.
